# Values of other authors as cited in paper PMC7235792, “Effect of the Most Relevant CYP3A4 and CYP3A5 Polymorphisms on the Pharmacokinetic Parameters of 10 CYP3A Substrates” (Biomedicines, 2020).
# Conditions: previous study of the group; cited from earlier work
smiles,measurement,value
CCC(=O)N(c1ccccc1)C1CCN(CCc2ccccc2)CC1,AUC in CYP3A4*22 carriers,higher AUC

# This is a selection: effects in other tests are not listed, and their absence says nothing.
